Reference: PubChem BioAssay (NCI)
Some results for these compounds are left out of this collection, so the calls shown say nothing about other tests.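 All cell lines were grown in 96-well plates and treated with compound for 48 hours. At the TGI there is no net growth.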

Assays:
NCI/ADR-RES ovarian = test: inhibition of tumour cell growth, NCI panel, 48 h
BT-549 breast = test: inhibition of tumour cell growth, NCI panel, 48 h

SMILES: CC#CC(O)(C(=O)OCC1=CCCN(C)C1)c1ccccc1 (configuration not stated)
- TGI (NCI/ADR-RES ovarian): 79.6 µM
- TGI (BT-549 breast): > 100 µM
